# Experimental data published in patent US20260217701A1, “SELECTIVE BET INHIBITORS AND USES THEREOF” (Tay Therapeutics Limited, priority 2022, published 2026).
# Test system: imiquimod-induced psoriasis
# Assay: Imiquimod-induced psoriasis model
# Assay type: in vivo, mice
# Conditions: after third and fourth treatment
# Source text: Imiquimod-induced psoriasis is a model of psoriasis in mice that induces psoriasis-like dermatitis. The pathology closes resembles human plaque-type psoriasis and is a valuable tool for testing new therapies against psoriasis. […] Compound A was formulated in a 5% DMSO/40% PEG-400/55% (0.9% NaCl w/v water) solution (Table 2F). Experimental groups for the study are outlined in Table 4. Prior to study initiation, the backs of all animals in the study were depilated to allow for induction of psoriasis and monitoring of disease progression. […]
# Body weights were recorded three times a week from Day 1 to Day 8, and daily from Day 8 until the study end at Day 15. At termination on D15 the spleen weight ratio was determined. Disease severity was assessed using the psoriasis area severity index (PASI) daily from Day 8 until study completion on Day 15. The PASI score was calculated based on three parameters (presence of erythema, induration of the skin, and peeling of the skin at the area of induction) on a scale of 0 to 4 (0=no more or absence, 1=low, 2=moderate, 3=high, 4=severe). The PASI score for each animal was calculated as the sum of the score of each parameter measured. The score of the use of enrichment (SUE) was also assessed daily from Day 8 to Day 15. […]
substance,measurement,value
Deucravacitinib [reference compound],mortality during the study,two animals died
